# Membrane permeability of cyclic peptides

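Lipid, pH, incubation time, direction and concentration are not recorded in the data file. The list need not hold all peptides of the study. Entries at the database's floor value (log10 P of -10) are not listed.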

PAMPA measures passive passage through an artificial lipid membrane. Permeability is given as log10 of P in cm/s; higher (less negative) is more permeable.

{"smiles": "CCCN1CC(=O)N[C@H](CC(C)C)C(=O)N[C@H](CC(C)C)C(=O)N2CCC[C@@H]2C(=O)N(C)[C@H](CC(C)C)C(=O)N[C@@H](Cc2ccccc2)C(=O)N2CCC[C@@H]2C1=O", "PAMPA (log10 cm/s)": "-5.56"}
{"smiles": "CC(C)C[C@@H]1C(=O)N[C@@H](Cc2ccccc2)C(=O)N2CCC[C@H]2C(=O)N(C)[C@H](C)C(=O)N(Cc2ccccc2)CC(=O)N(C)[C@@H](CC(C)C)C(=O)N2CCC[C@@H]2C(=O)N1C", "PAMPA (log10 cm/s)": "-5.43"}
{"smiles": "CC(C)C[C@@H]1C(=O)N(C)[C@@H](CC(C)C)C(=O)N2CCC[C@H]2C(=O)N(C)[C@@H](CC(C)C)C(=O)N[C@@H](Cc2ccccc2)C(=O)N2CCC[C@H]2C(=O)N(C)[C@@H](C)C(=O)N1C", "PAMPA (log10 cm/s)": "-5.55"}
{"smiles": "CC(C)C[C@H]1NC(=O)[C@H](C)N(C)C(=O)[C@H](Cc2ccccc2)NC(=O)[C@H](CC(C)C)N(C)C(=O)[C@@H]2CCCN2C(=O)[C@@H](CC(C)C)NC1=O", "PAMPA (log10 cm/s)": "-5.73"}
{"smiles": "CC(C)C[C@@H]1C(=O)N[C@@H](Cc2ccccc2)C(=O)N[C@H](C)C(=O)N(C)[C@@H](CC(C)C)C(=O)N[C@H](CC(C)C)C(=O)N2CCC[C@H]2C(=O)N1C", "PAMPA (log10 cm/s)": "-5.16"}
{"smiles": "CCCN1CC(=O)N(C)[C@@H](CC(C)C)C(=O)N(C)[C@H](CC(C)C)C(=O)N2CCC[C@@H]2C(=O)N(C)[C@H](CC(C)C)C(=O)N[C@@H](Cc2ccccc2)C1=O", "PAMPA (log10 cm/s)": "-5.13"}
{"smiles": "CCCN1CC(=O)N[C@H](CC(C)C)C(=O)N(C)[C@H](CC(C)C)C(=O)N2CCC[C@H]2C(=O)N(C)[C@H](CC(C)C)C(=O)N[C@@H](Cc2ccccc2)C(=O)N2CCC[C@@H]2C1=O", "PAMPA (log10 cm/s)": "-4.99"}
{"smiles": "CC(C)C[C@H]1NC(=O)C[C@H](Cc2ccccc2)NC(=O)[C@H](Cc2ccccc2)NC(=O)CN(Cc2ccccc2)C(=O)[C@H]2CCCN2C(=O)[C@@H](CC(C)C)NC1=O", "PAMPA (log10 cm/s)": "-5.82"}
{"smiles": "CC(C)C[C@@H]1NC(=O)[C@H](CC(C)C)N(C)C(=O)[C@H](C)NC(=O)[C@H](Cc2ccccc2)NC(=O)[C@@H](CC(C)C)NC(=O)[C@H]2CCCN2C1=O", "PAMPA (log10 cm/s)": "-5.53"}
{"smiles": "CC(C)C[C@@H]1C(=O)N[C@@H](Cc2ccccc2)C(=O)N2CCC[C@H]2C(=O)N(C)[C@H](C)C(=O)N[C@H](CC(C)C)C(=O)N(C)[C@@H](CC(C)C)C(=O)N2CCC[C@@H]2C(=O)N1C", "PAMPA (log10 cm/s)": "-5.18"}
{"smiles": "CC(C)C[C@@H]1NC(=O)[C@@H]2CCCN2C(=O)C[C@H](Cc2ccccc2)NC(=O)[C@@H](CC(C)C)N(C)C(=O)C[C@H](Cc2ccccc2)NC(=O)[C@@H]2CCCN2C(=O)[C@H](Cc2ccccc2)NC1=O", "PAMPA (log10 cm/s)": "-5.37"}
{"smiles": "CC(C)C[C@@H]1C(=O)N[C@@H](Cc2ccccc2)C(=O)N(C)[C@H](C)C(=O)N[C@H](CC(C)C)C(=O)N(Cc2ccccc2)CC(=O)N2CCC[C@H]2C(=O)N1C", "PAMPA (log10 cm/s)": "-5.30"}
{"smiles": "CC(C)C[C@@H]1C(=O)N(Cc2ccccc2)CC(=O)N2CCC[C@H]2C(=O)N[C@H](CC(C)C)C(=O)N[C@@H](Cc2ccccc2)C(=O)N2CCC[C@H]2C(=O)N(C)[C@H](C)C(=O)N1C", "PAMPA (log10 cm/s)": "-7.21"}
{"smiles": "CCCN1CC(=O)N[C@@H](CC(C)C)C(=O)N(C)[C@H](CC(C)C)C(=O)N2CCC[C@H]2C(=O)N(Cc2ccccc2)CC(=O)N[C@@H](Cc2ccccc2)C(=O)N2CCC[C@@H]2C1=O", "PAMPA (log10 cm/s)": "-5.64"}
{"smiles": "CC(C)C[C@@H]1C(=O)N[C@@H](Cc2ccccc2)C(=O)N[C@@H](C)C(=O)N(C)[C@@H](CC(C)C)C(=O)N[C@H](CC(C)C)C(=O)N2CCC[C@@H]2C(=O)N1C", "PAMPA (log10 cm/s)": "-6.14"}
{"smiles": "CC(C)C[C@@H]1C(=O)N(Cc2ccccc2)CC(=O)N2CCC[C@H]2C(=O)N[C@H](CC(C)C)C(=O)N[C@@H](Cc2ccccc2)C(=O)N2CCC[C@@H]2C(=O)N[C@H](C)C(=O)N1C", "PAMPA (log10 cm/s)": "-5.49"}
{"smiles": "CC(C)C[C@@H]1C(=O)N[C@@H](Cc2ccccc2)C(=O)N2CCC[C@H]2C(=O)N(C)[C@H](C)C(=O)N[C@H](CC(C)C)C(=O)N[C@@H](Cc2ccccc2)CC(=O)N2CCC[C@@H]2C(=O)N1C", "PAMPA (log10 cm/s)": "-6.18"}
{"smiles": "CC(C)C[C@@H]1C(=O)N[C@@H](Cc2ccccc2)C(=O)N2CCC[C@@H]2C(=O)N(C)[C@@H](C)C(=O)N[C@H](CC(C)C)C(=O)N[C@@H](Cc2ccccc2)CC(=O)N2CCC[C@H]2C(=O)N1C", "PAMPA (log10 cm/s)": "-5.95"}
{"smiles": "CCCN1CC(=O)N[C@H](CC(C)C)C(=O)N[C@H](CC(C)C)C(=O)N2CCC[C@H]2C(=O)N[C@@H](CC(C)C)C(=O)N[C@@H](Cc2ccccc2)C1=O", "PAMPA (log10 cm/s)": "-5.08"}
{"smiles": "CC(C)C[C@@H]1C(=O)N[C@@H](Cc2ccccc2)C(=O)N[C@H](C)C(=O)N[C@H](CC(C)C)C(=O)N(C)[C@@H](CC(C)C)C(=O)N2CCC[C@@H]2C(=O)N1C", "PAMPA (log10 cm/s)": "-5.47"}
{"smiles": "CC(C)C[C@@H]1C(=O)N(C)[C@H](CC(C)C)C(=O)N2CCC[C@@H]2C(=O)N(C)[C@@H](CC(C)C)C(=O)N[C@@H](Cc2ccccc2)C(=O)N2CCC[C@@H]2C(=O)N[C@@H](C)C(=O)N1C", "PAMPA (log10 cm/s)": "-4.79"}
{"smiles": "CC(C)C[C@@H]1NC(=O)[C@@H](C)NC(=O)[C@H]2CCCN2C(=O)[C@H](Cc2ccccc2)NC(=O)CN(Cc2ccccc2)C(=O)[C@@H]2CCCN2C(=O)[C@@H](CC(C)C)NC1=O", "PAMPA (log10 cm/s)": "-6.25"}
{"smiles": "CC(C)C[C@H]1NC(=O)[C@H](C)NC(=O)[C@H](Cc2ccccc2)NC(=O)CN(Cc2ccccc2)C(=O)[C@H]2CCCN2C(=O)CN(Cc2ccccc2)C1=O", "PAMPA (log10 cm/s)": "-6.01"}
{"smiles": "CC(C)C[C@H]1NC(=O)[C@H](C)N(C)C(=O)[C@H]2CCCN2C(=O)[C@H](Cc2ccccc2)NC(=O)[C@H](CC(C)C)N(C)C(=O)[C@H]2CCCN2C(=O)[C@H](CC(C)C)N(C)C1=O", "PAMPA (log10 cm/s)": "-5.05"}

Data: CycPeptMPDB; original report Townsend et al. 2020, doi:10.26434/chemrxiv.13335941.v1.